# Reference: patent US9657260B2, “Method and system for continous monitoring of toxicity” (Yissum Research Development Company of The Hebrew …, priority 2014, dated 2017)
# Tested on: HepG2/C3A spheroids
# Type: cell-based, human
# Experimental: Quantitative Real Time Polymerase Chain Reaction (qRT-PCR). RNA was isolated and purified utilizing Macherey-Nagel NucleoSpin RNA II kit according to manufacturer instructions. RNA concentration and purity was determined using NanoDrop ND-1000 spectrophotometer (Thermo Fisher Scientific, USA). cDNA was synthesized from 1 μg RNA sample using qScript cDNA SuperMix (Quanta BioSciences, USA) according to the manufacturer protocol. Gene expression analysis was carried out utilizing KAPA SYBR FAST Universal 2X qPCR Master Mix (Kapa Biosystems, Boston, USA) on BioRad CFX96 Real-Time System (New South Wales, Australia), according to the manufacturer protocol. Gene transcription was evaluated using the ΔΔCt method normalized to 60S ribosomal protein L32 (RPL32) or ubiquitin C (UBC).
smiles,measurement,value
C[S+](C)[O-] [DMSO],increase in CYP2C9 expression,2 fold
